{"sequences": {"note": "Sequences of proteins named here, by UniProt entry; tags and fusion partners are left off.", "UniProt P60842, whole entry": "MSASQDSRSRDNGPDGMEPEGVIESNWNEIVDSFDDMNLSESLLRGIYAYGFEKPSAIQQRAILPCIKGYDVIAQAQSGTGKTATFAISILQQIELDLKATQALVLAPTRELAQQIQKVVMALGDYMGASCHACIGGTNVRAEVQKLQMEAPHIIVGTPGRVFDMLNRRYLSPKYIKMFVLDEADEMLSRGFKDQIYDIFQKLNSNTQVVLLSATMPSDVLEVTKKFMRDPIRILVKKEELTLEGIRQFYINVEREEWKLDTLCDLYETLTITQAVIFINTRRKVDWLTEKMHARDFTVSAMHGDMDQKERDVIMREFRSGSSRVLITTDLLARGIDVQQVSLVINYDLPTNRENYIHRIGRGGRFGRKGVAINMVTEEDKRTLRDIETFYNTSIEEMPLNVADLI"}, "source": "ChEMBL document CHEMBL4613325", "about": "“Design of Development Candidate eFT226, a First in Class Inhibitor of Eukaryotic Initiation Factor 4A RNA Helicase” (J Med Chem, 2020)", "key": {"Homo sapiens": {"species_on_record": "Homo sapiens", "test": "Selectivity index, ratio of IC50 for inhibition of eIF4A1 F163L mutant in human HAP1 cells assessed as reduction in cell proliferation incubated for 72 hrs by CellTiter-Glo reagent based assay to IC50 for inhibition of eIF4A1 in human HAP1 cells assessed as reduction in cell proliferation incubated for 72 hrs by CellTiter-Glo reagent based assay"}, "[1]": {"target": "Eukaryotic initiation factor 4A-I (Homo sapiens, UniProt P60842)", "test": "Ratio of half life for binding affinity to full length recombinant eIF4A1 (unknown origin) assessed as induction ternary complex formation in presence of AGAGAG by measuring half life for AGAGAG + AMP-PNP complex formation SPR assay to half life for binding affinity to full length recombinant eIF4A1 (unknown origin) assessed as induction ternary complex formation in presence of AGAGAG by measuring half life for AGAGAG + ATP complex formation SPR assay"}}}
{"smiles": "COc1cc2c(c(OC)n1)[C@]1(O)[C@H](O)[C@H](CN(C)C)[C@@H](c3ccccc3)[C@]1(c1ccc(C#N)cc1)O2", "values": [{"measurement": "Ratio IC50", "setting": "Homo sapiens", "value": 60}, {"measurement": "Ratio", "setting": "[1]", "value": 30}]}
